{"source": "PubChem BioAssay AID1845228", "settings": "pampa; 60.0 min; 50.0 µM", "data": [{"smiles": "CCn1c(=O)n([C@@H]2CCN(CC3CCCCCCC3)C[C@H]2CO)c2ccccc21", "values": [{"measurement": "Papp", "value": 57, "unit": "×10⁻⁶ cm/s"}]}]}
